Test results as given in patent US20250213547A1, “METHODS OF TREATING NEUROLOGICAL DISEASES” (priority 2022, published 2025).

Tests used:
[1] = Multiple rising dose study: safety (TEAEs) in healthy subjects over 14 days; type: in vivo, human; settings: healthy men and women, up to 400 mg daily
Protocol: Soticlestat safety metrics were obtained from the patients described in example 6. The rising dose study tested the safety and tolerability of soticlestat dosages in healthy subjects over 14 days. Subjects were monitored during the study and a full review was conducted after each rising dose. Safety data monitoring included vitals, physical and visual examinations, electrocardiogram, BMI, and clinical laboratory tests. There was no clinically relevant findings. Percentages are rounded to one decimal place. A subject with two or more different adverse events (AE) within the same levels of the MedDRA term and treatment is counted only once at that level using the most related or severe incident. A TEAE is defined as an AE or SAE that occurs or gets worse after receiving the first dose of study drug and within 30 days after the last dose of study drug.

[2] = Multiple rising dose study: PK of soticlestat and M-I (day 1, day 14), oral solution; settings: both, human, in vivo
Excerpt: The second trial was a phase I, randomized, double-blind, placebo-controlled study, with soticlestat administered by oral solution at multiple escalating doses in healthy subjects. The criteria for subject inclusion and exclusion are similar to those of the first trial described above but with the added screening of female subjects for pregnancy. Five cohorts with eight subjects each, including two placebos, were randomized to receive soticlestat by oral solution for 14 days. After a cohort finished their dosage regimen, a decision was made whether to escalate the dosage for the next cohort. Cohorts 1, 2, and 3 received 100, 300, and 400 mg once daily (QD), respectively, and cohorts 4 and 5 received 300 mg twice daily (BID) or 600 mg QD. The regimen for cohorts 4 and 5 were discontinued after subjects began experiencing adverse neurological and psychiatric events. Example 6 describes the PK protocol and the results.
The blood sampling protocol included obtaining a 4-ml blood sample for PK analysis 30 minutes pre-dose, and at 10, 15, 20, and 30 minutes and 1, 1.5, 2, 3, 4, 6, 8, 10, 12, 16, and 24 hours post-dose on days 1 and 14. Cohort 3, receiving 400 mg QD, had additional blood samples taken on day 7 at 15 and 30 minutes, and 1, 2, 4, and 8 hours post-dose. […] The median time for Cmax (Tmax) across the dose range varied between 0.33-0.5 hours. […] The 24 hour plasma area under the concentration-time curve (AUC24) for doses 100, 300, and 400 mg at day 14 were 458, 2690, and 2800 ng×h/mL, respectively. The concentration time profiles were similar from day 1 through day 14. […]
Blood samples were obtained for soticlestat and M-I PK data on days 1 and 14 at −30 minutes pre-dose and at 10, 15, 20, and 30 minutes, and post-dose at 1, 1.5, 2, 3, 4, 6, 8, 10, 12, 16, and 24 hours. […] Plasma and urine soticlestat and M-I concentrations were measured and validated as described in example 2. […] An analysis of variance (ANOVA) assessed the variation in time dependency for Cmax and AUC∞ on day 1 and day 14 for cohorts receiving once daily dosing. […]

[3] = Healthy Japanese subjects, Part 1 (single dose 200, 600, 1200 mg tablets): PK of TAK-935 and M-I; type: in vivo, human; settings: plasma, mean (% CV)
Protocol: (§1) This study consisted of 2 parts, and was a randomized, double-blind, placebo-controlled study to assess safety, tolerability, and PK and PD of TAK-935 when administered orally in healthy Japanese subjects.
On Day 1 of each dose level, a single dose of TAK-935 or placebo was administered, and safety, PK and PD were evaluated.
After the screening visit, eligible participants checked—in on Day-2. On Day 1, eligible participants were randomized 6:2 to TAK-935 or placebo in each dose group in double-blinded fashion. No stratification variables were used for randomization. On the same day, study drug was administered by oral administration of single dosing of TAK-935 to each cohort at each dose level. The subjects were discharged on Day 3. Intensive PK samplings were performed from Day 1 to Day 3.
Subjects received a single dose of TAK-935 or placebo of 200 mg, 600 mg, or 1200 mg with 150 mL of water, after fasting for at least 10 hours and remained fasted until 4 hours after dosing.
(§2) Blood samples for PK analysis of TAK-935 and its metabolites (M-I) were collected into blood collection tubes (vacutainer) containing the anticoagulant K2EDTA (Table 40e and Table 40f).
(§3) The PK parameters of TAK-935 and its metabolites (M-I) were determined from the concentration-time profiles for all evaluable subjects. Actual sampling times, rather than scheduled sampling times, were used in all computations involving sampling times. The following PK parameters were calculated from plasma concentrations of TAK-935 and its metabolites (M-I), unless otherwise specified: […]

[4] = Healthy Japanese subjects, Part 2 (100, 200, 300 mg BID up-titration): PK of TAK-935 and M-I; type: in vivo, human; settings: for AUCτ/D (dose-normalized AUC during a dosing interval) / Cmax/D (dose-normalized): plasma, mean (% CV)
Protocol: as §1
TAK-935 or placebo was administered to the 9 subjects at the dose of 100 mg BID from Day 1 to Day 7, then 200 mg BID from Day 8 to Day 14, and finally 300 mg BID from Day 15 to Day 21, and safety, PK and PD were investigated. The planned dose levels of TAK-935 to be evaluated are outlined in Table 40a.
After the screening visit, eligible participants checked—in on Day-2. On Day 1, eligible participants were randomized 6:3 to TAK-935 or placebo in double-blinded fashion. No stratification variables were used for randomization. Study drug was administered every day by oral administration of multiple dosing with up-titration of TAK-935 to 9 subjects firstly at 100 mg BID from Day 1 to Day 7, then at 200 mg BID from Day 8 to Day 14, and finally at 300 mg BID from Day 15 to Day 21, successively. The subjects were discharged on Day 24. Intensive PK samplings were performed on Day 1, Day 7, Day 14 and Day 21.
Subjects received multiple oral doses of TAK-935 or placebo escalating from 100 mg BID, 200 mg BID, and then to 300 mg BID with 150 mL of water for 7 days per each dose level. For the morning dose, subjects were kept fasted for at least 8 hours before administration and up to 2 hours after administration. The evening dose was administered at any time between 8 hours and 12 hours after the morning dose, but prior to the evening meal except for Days 1, 7, 14, and 21. On Days 1, 7, 14, and 21, the evening dose was administered 12 hours after the morning dose and prior to the evening meal. • Identity of Study Drugs • Study drug refers to TAK-935 100 mg tablet and matching placebo. • Compound: Code name: TAK-935 • Dosage forms: TAK-935 100 mg tablets and matching placebo tablets were used in this study. The TAK-935 tablets and placebo tablets were yellow-red film-coated tablets for oral administration.
as §2, §3

[5] = human, in vivo
Excerpt: Other inclusion criteria were body weight ≥10 kg, currently taking a fixed dosage of 1 to 4 antiseizure medications, and failure to remain seizure free after trying at least two antiseizure medications. Convulsive seizures include focal to bilateral tonic-clonic with impaired awareness, hemi-clonic, simultaneous bilateral clonic, and generalized tonic-clonic seizures. Drop seizures can involve the entire body, trunk, or head which leads to falling. […] Approximately 126 patients ages ≥2 and ≤17 years were enrolled in the study. The study included two main phases, a 4-6 week screening and baseline period, and a 20-week treatment period. Patients received doses twice a day in a tablet formulation. The starting dose was adjusted according to the patient's body weight (Table 17).
During the first 8 weeks of treatment patient dosing was a titrated for individual optimization. The remaining 12-weeks of treatment consisted of a maintenance phase. The study began with treating patients ≥9 years of age for one month before treating younger patients. Blood was collected for PK analysis on the first dosage day within one hour of the morning dose, and 30 minutes, and 1, 2, 3, and 4 hours post-dose. Subsequent blood sampling took place before the morning dose and 30 minutes post-dose. Blood samples were obtained at scheduled times for determining PK profile and Tmax, which is the time Cmax was reached. A patient's seizure frequency was recorded before and during the trial to calculate percent change from baseline.
The PK model parameters can be used as a tool to estimate PK and drug exposure in an individual or a population (such as with ELEKTRA), as well as to calculate individualized dosing based on covariates. For example, optimal daily dosing can be calculated using the area under the concentration time curve and clearance values (dose=targetAUC24×CL). Blood sampling at steady-state was limited in the ELEKTRA study, thus some of the PK parameters shown in Table 32 for the ELEKTRA population were simulated by interpolation.
The dots represent the simulation and the numbers below the dot represent the simulated covariate value, while the values above the dots show the percent change from the reference level. The vertical line labeled “ref” depicts the reference level. […] The CV % refers to the coefficient of variation assuming a log-normal distribution, derived as […], where σ denotes the standard deviation of the log-transformed values.
The term AUC(0-tau) stands for AUC to the end of the dosing period. The covariate effects were analyzed using exposure parameters AUC, Cmax, and Ctrough.

[6] = Day 7, TAK-935 100 mg BID, mean
[7] = TAK-935, multiple doses 100 mg BID

## O=C(c1cccnc1-c1ccncc1)N1CCC(O)(Cc2ccccc2)CC1 [soticlestat]
[1]
  safety/tolerability conclusion: safe and tolerated
[2]
  fold increase in AUC24 over 4-fold dose range: 6.12 fold
  fold increase in Cmax over 4-fold dose range: 6.08 fold
  fold increase in Cmax over 6-fold dose range: 6.55-9.35 fold
[3]; TAK-935 200 mg single dose
  AUClast/D (dose-normalized): 3.476 (89.9) h*ng/mL/mg
  AUC∞/D (dose-normalized): 3.605 (88.3) h*ng/mL/mg
  Cmax/D (dose-normalized): 4.250 (139.3) ng/mL/mg
[3]; TAK-935 600 mg single dose
  AUClast/D (dose-normalized): 6.432 (49.6) h*ng/mL/mg
  AUC∞/D (dose-normalized): 6.537 (48.6) h*ng/mL/mg
  Cmax/D (dose-normalized): 5.473 (49.5) ng/mL/mg
[3]; TAK-935 1200 mg single dose
  AUClast/D (dose-normalized): 9.480 (44.2) h*ng/mL/mg
  AUC∞/D (dose-normalized): 9.550 (44.1) h*ng/mL/mg
  Cmax/D (dose-normalized): 8.465 (47.9) ng/mL/mg
[4]; [6]
  Rac(AUC) (accumulation ratio based on AUC): 1.054
  Rac(Cmax) (accumulation ratio based on Cmax): 1.047
[4]; Day 7, TAK-935 100 mg BID
  AUCτ/D (dose-normalized AUC during a dosing interval): 2.244 (48.8) h*ng/mL/mg
  Cmax/D (dose-normalized): 2.037 (86.7) ng/mL/mg
[4]; Day 14, TAK-935 200 mg BID
  AUCτ/D (dose-normalized AUC during a dosing interval): 4.302 (44.9) h*ng/mL/mg
  Cmax/D (dose-normalized): 4.903 (54.7) ng/mL/mg
[4]; Day 21, TAK-935 300 mg BID
  AUCτ/D (dose-normalized AUC during a dosing interval): 6.730 (25.2) h*ng/mL/mg
  Cmax/D (dose-normalized): 6.883 (39.9) ng/mL/mg
[4]; [7]
  accumulation ratio for AUC: 1.054
  accumulation ratio for Cmax: 1.047
[5]
  CL/F: 13.03 to 691.15 L/h
  Q/F: 8.17 to 347.85 L/h
  V2/F: 11.94 to 633.51 L
  V3/F: 24.13 to 1235.17 L
